Experiments:
[1] = target: Isoform PNNOS of Nitric oxide synthase, brain (PNNOS) -973,I269V,M336V,D597N] (Rattus norvegicus, UniProt P29476, D597N/I269V/M336V); test: Hemoglobin Capture Assay; details: pH 7.4; 37 °C
[2] = target: Nitric oxide synthase, brain [D597N] (Rattus norvegicus, UniProt P29476, D597N); test: Hemoglobin Capture Assay; details: pH 7.4; 37 °C

The chains behind the UniProt entries cited, without tags or fusion partners.
UniProt P29476, whole entry I269V/M336V/D597N: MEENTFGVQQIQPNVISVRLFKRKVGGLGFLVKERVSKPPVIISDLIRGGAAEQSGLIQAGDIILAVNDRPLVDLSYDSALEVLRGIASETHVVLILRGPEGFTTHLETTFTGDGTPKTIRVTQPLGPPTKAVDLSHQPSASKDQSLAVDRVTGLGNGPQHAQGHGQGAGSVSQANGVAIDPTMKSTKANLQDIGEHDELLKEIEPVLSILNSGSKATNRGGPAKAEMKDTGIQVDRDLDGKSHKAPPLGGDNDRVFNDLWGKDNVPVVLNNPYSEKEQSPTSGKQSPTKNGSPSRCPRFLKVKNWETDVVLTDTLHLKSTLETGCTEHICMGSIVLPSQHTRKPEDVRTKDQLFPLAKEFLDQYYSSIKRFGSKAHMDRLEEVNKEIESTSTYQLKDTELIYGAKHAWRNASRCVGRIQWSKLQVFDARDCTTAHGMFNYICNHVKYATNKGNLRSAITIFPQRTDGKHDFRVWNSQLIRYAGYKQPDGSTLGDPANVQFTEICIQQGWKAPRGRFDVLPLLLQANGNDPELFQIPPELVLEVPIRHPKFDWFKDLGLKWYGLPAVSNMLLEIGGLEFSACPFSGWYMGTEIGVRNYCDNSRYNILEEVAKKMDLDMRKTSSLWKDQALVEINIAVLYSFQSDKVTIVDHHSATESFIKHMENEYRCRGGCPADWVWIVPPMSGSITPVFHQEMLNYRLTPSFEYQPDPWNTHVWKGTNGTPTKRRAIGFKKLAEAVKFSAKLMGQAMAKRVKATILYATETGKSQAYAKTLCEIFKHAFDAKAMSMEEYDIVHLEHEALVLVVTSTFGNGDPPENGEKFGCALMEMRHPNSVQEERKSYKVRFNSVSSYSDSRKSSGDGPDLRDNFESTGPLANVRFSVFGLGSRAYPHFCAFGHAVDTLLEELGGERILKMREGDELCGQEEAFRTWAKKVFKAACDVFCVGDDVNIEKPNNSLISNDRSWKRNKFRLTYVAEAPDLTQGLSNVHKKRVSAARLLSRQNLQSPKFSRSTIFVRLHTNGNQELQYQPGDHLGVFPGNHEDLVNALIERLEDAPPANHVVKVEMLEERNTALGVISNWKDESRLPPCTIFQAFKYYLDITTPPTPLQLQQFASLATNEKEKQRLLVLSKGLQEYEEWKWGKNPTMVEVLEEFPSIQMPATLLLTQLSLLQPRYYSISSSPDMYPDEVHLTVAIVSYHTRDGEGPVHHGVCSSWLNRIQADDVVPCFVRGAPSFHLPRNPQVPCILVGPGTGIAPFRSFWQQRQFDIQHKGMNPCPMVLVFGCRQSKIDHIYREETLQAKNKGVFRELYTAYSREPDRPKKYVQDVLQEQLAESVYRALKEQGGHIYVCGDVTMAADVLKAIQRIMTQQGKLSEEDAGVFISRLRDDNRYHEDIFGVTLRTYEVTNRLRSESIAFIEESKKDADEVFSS
UniProt P29476, whole entry D597N: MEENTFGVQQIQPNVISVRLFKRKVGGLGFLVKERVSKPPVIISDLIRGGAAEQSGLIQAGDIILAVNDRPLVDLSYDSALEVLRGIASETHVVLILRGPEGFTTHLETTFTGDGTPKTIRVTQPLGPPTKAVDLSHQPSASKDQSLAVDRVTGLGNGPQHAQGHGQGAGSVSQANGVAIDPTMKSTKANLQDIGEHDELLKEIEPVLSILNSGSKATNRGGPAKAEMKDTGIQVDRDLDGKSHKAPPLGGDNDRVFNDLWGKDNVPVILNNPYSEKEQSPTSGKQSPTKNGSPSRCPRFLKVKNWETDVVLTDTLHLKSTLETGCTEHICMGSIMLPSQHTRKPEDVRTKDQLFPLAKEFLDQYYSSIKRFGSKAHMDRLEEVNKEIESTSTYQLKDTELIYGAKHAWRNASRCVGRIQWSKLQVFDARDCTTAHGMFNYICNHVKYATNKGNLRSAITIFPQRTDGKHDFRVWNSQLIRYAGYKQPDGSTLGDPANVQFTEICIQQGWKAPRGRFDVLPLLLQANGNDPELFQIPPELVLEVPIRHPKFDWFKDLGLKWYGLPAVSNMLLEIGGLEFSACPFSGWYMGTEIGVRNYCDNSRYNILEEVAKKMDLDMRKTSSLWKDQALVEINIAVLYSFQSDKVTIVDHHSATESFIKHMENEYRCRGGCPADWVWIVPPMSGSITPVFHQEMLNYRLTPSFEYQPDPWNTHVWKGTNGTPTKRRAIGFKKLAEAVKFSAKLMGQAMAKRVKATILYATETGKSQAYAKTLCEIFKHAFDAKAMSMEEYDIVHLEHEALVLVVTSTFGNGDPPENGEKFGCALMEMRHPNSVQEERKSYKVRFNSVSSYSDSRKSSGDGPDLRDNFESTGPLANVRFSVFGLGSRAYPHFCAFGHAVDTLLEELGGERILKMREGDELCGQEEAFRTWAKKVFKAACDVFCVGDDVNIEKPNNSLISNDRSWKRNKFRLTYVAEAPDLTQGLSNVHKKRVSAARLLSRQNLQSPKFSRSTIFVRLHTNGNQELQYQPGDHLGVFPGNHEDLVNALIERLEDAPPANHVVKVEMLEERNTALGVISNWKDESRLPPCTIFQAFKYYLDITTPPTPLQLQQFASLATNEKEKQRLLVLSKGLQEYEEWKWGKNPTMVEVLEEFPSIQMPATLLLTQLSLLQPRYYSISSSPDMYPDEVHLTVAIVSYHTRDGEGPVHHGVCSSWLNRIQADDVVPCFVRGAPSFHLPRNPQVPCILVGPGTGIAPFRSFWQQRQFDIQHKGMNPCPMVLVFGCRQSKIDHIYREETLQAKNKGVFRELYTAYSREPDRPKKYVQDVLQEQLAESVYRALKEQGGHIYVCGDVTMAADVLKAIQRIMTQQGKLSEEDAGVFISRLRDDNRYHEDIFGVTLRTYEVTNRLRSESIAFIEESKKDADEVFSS

| Ki [1] [nM] | Ki [2] [nM] | SMILES |
| --- | --- | --- |
| 116 | 139 | CNCCN(C)c1cncc(CCc2cc(C)cc(N)n2)c1 [4-methyl-6-[2-(5-{methyl[2-(methylamino)ethyl]amino}pyridin-3-yl)ethyl]pyridin-2-amine (14)] |
| 108 | 97.5 | Cc1cc(N)nc(CCc2cncc(CCCN(C)C)c2)c1 [nNOS inhibitor, 6] |

Source: BindingDB's records for doi:10.1021/acs.biochem.6b00261 (University of California Irvine, 2016)
